The record followed here is patent publication US9302996B2, “Continuous arycyclic compound” (MITSUBISHI TANABE PHARMA CORPORATION, priority 2010, dated 2016).

The test system of one experiment is KK-Ay mice. Put plainly: Weight gain-inhibiting action, hypoglycemic effect, insulin in blood plasma lowering action in KK-Ay mice.
The subject of a further experiment is ICR mice. Put plainly: Triglyceride (TG) in blood plasma increase-inhibiting action due to lipid administration. To be noted: Mus musculus, po, 2 h, read-out: Inhibiting rate of TG-increase in blood plasma (5 mg/kg).
A further experiment concerns C57BL/6J mice. As to the kind of experiment: Antifeeding activity (high fat diet intake up to 4 hours). The class given is in vivo. To be noted: Mus musculus, male C57BL/6J mice, 5 mg/kg oral, food ingested up to 4 hours, read-out: Antifeeding rate (5 mg/kg).

Marks after values point to notes of the source that are not given here.

In the case of `CC(C)(COc1ccc(-c2ccc(-c3ncc(C(F)(F)F)[nH]3)cn2)cc1)C(=O)O` [Example 1-3), 2,2-dimethyl-3-(4-{5-[5-(trifluoromethyl)-1H-imidazol-2-yl]pyridin-2-yl}phenoxy)propanoic acid], the inhibition in vivo at 30 mg/kg in the experiment with KK-Ay mice (Mus musculus, po, 336 h, read-out: Weight gain-inhibiting action (30 mg/kg/day)) amounted to 67%. In addition, in the experiment with ICR mice, the inhibition in vivo at 5 mg/kg was determined as 77%.

As for `CC(C)(COc1ccc(-c2ccc(-c3ncc(C4CCC4)[nH]3)cn2)cc1)C(=O)O` [Example 55-2), 3-[4-[5-(5-cyclobutyl-1H-imidazol-2-yl)-2-pyridyl]phenoxy]-2,2-dimethylpropanoic acid], the inhibition in vivo at 5 mg/kg with ICR mice was determined as 60%.

In the case of `CC(C)(COc1ccc(-c2ccc(-c3nc(C(F)(F)F)c[nH]3)cn2)cc1)C(=O)O` [2,2-dimethyl-3-[4-[5-[4-(trifluoromethyl)-1H-imidazol-2-yl]-2-pyridyl]phenoxy]propanoic acid], the inhibition in vivo at 5 mg/kg is 66% in the experiment with C57BL/6J mice and 72% in the experiment on ICR mice. Further, the Weight gain-inhibiting action with KK-Ay mice (male KK-Ay mice, high fat diet, administration dose of 1 mg/kg/day oral, 2 weeks) is listed as 35%*.
